Target: Peroxisome proliferator-activated receptor gamma (Mus musculus) (UniProt P37238)
Experiment: Inverse agonist activity at PPARgamma in NMRI-nu/nu mouse assessed as fold reduction in Fabp4 mRNA expression in adipose tissue at 100 mg/kg for 3 days and measured 15 hrs last dose by qPCR analysis
Assay type: organism-based
Details: filed as inverse agonist, time 3.0 day

By UniProt entry, the sequences of proteins in these tests, tags left out.
UniProt P37238, whole entry: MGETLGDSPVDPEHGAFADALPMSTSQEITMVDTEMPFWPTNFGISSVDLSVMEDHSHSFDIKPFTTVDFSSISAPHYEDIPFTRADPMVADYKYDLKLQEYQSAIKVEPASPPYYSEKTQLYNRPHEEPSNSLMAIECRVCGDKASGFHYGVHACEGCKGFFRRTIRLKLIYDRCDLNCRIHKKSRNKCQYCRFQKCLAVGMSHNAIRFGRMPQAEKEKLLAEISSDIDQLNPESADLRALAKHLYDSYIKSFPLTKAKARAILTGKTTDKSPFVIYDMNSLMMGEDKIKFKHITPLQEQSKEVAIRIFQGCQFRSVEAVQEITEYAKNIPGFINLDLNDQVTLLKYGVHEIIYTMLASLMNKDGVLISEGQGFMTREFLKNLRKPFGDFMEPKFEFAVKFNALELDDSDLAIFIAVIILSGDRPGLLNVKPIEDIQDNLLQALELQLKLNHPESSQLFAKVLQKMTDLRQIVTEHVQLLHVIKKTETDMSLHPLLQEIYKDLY

Row | fold change (FC) | SMILES
1 | 2 | Cc1cc(OC(F)F)ccc1NC(=O)c1cc(C(=O)NCc2ccc(F)cc2)c(F)cc1Cl
2 | 2 | Cc1cc(N2CCOCC2)cnc1NC(=O)c1cc(C(=O)NCc2ccc(F)c(F)c2)c(F)cc1Cl
3 | 2 | CC(C)(O)c1ccc(NC(=O)c2cc(C(=O)NCc3ccc(F)c(F)c3)c(F)cc2Cl)cc1
